Results published in ChEMBL document CHEMBL1134817, “Mixed kappa agonists and mu agonists/antagonists as potential pharmacotherapeutics for cocaine abuse: synthesis and opioid receptor binding affinity of N-substituted derivatives of morphinan” (Bioorg Med Chem Lett, 2001).

Amino acid sequences for entries named in this document (tags omitted). A change or cut given only in a name is not applied to a line headed by its entry.
UniProt P41145: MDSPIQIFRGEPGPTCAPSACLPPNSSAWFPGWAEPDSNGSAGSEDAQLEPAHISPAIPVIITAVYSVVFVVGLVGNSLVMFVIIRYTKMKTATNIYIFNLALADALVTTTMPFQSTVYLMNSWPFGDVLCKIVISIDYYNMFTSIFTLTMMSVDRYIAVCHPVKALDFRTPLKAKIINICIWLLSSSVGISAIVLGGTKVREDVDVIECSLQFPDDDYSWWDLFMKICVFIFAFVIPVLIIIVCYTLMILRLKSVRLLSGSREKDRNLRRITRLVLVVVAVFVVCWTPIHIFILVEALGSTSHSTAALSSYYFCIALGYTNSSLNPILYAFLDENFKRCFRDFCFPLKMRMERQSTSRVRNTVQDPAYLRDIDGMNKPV
UniProt P41143, whole entry, looked up: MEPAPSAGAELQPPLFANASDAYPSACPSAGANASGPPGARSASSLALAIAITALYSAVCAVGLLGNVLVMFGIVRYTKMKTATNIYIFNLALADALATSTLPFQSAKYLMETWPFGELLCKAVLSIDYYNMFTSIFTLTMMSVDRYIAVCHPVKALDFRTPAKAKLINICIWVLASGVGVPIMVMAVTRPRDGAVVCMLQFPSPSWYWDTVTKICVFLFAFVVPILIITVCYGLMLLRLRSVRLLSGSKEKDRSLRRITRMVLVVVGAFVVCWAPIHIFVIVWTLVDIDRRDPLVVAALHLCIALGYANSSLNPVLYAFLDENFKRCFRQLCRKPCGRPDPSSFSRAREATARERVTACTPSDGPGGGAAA

Biological target: Opioid receptors; delta & kappa (Homo sapiens) (UniProt P41145+P41143)
Experiment: Selectivity ratio of kappa opioid receptor to that of delta opioid receptor in guinea pig brain membranes
Format: cell membranes
Conditions: Cavia porcellus; target entry is the homologue from another species

CN(C(=O)Cc1ccc(Cl)c(Cl)c1)C1CCCCC1N1CCCC1 (stereo unspecified)
Selectivity: 6900
